# Measurements as given in PubChem BioAssay AID652083 (The Scripps Research Institute Molecular Screening Center, 2013).
# This is one part of the list. Calls of active or inactive are those of the source.
# System: Adrenergic alpha 2 (non-selective)
# Assay: PubChem AID 652083
# Settings: CEREP radioligand binding panel, % inhibition at 10 uM, hits give high values
structure (smiles),measurement,value
COC(=O)c1cc(Br)cnc1N1CCC(NC2CCCCC2)C(O)C1 (stereo unspecified),inhibition of specific binding,inactive: 1%
